# This is a selection; strong and weak results do not stand in their true shares. The source made the active and inactive calls. The call rests on the fitted dose curve; in most records, active means well fitted inhibition curve with a large enough effect; inconclusive means small, poorly fitted or top-dose-only effect; inactive means no such curve, though single readings can be large or run the other way.
# By UniProt entry, the sequences of proteins in these tests, tags left out.
# UniProt O75874, whole entry, looked up, stated change not applied: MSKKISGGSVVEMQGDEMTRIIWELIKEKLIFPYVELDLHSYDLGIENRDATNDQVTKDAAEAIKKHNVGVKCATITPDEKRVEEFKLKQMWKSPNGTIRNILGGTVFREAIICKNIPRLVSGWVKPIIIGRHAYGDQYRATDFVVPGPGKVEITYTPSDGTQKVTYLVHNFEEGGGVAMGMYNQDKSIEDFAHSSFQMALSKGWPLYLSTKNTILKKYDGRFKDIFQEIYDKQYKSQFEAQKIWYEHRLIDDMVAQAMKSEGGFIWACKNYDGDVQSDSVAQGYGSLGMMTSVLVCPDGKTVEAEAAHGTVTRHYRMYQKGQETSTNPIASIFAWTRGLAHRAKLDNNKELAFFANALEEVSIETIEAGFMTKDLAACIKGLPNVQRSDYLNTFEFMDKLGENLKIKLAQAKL
# Biological target: Isocitrate dehydrogenase [NADP] cytoplasmic (Homo sapiens) (UniProt O75874)
# Test: qHTS for Inhibitors of mutant isocitrate dehydrogenase 1 (IDH1): qHTS; further: nearly all actives have a fitted effect of over 65% in size
# Conditions: IDH1-R132H enzyme, NADPH consumption, diaphorase/resazurin fluorescence; at 76.6 µM (top of the series)
# Excerpt: Unbiased genomic sequencing for 22 glioma genomes found recurrent mutation of isocitrate dehydrogenase 1 (IDH1) on chromosome 2q33-a gene encoding the cytosolic isoform of IIDH1associated with the tricarboxylic acid cycle (TCA) that catalyzes the oxidative decarboxylation of isocitrate, yielding alpha-ketoglutarate and CO2 via NADP+ to NADPH conversion. Subsequent studies confirmed the recurrent IDH mutations in up to 70% of secondary gliomas and in 10% of AML cases. […] This in effect defines IDH1 as an oncogene, and provides an extraordinary opportunity to discover chemical probes against mutant IDH1 that may translate into much needed new therapies for glioma and AML patients. […] NIH Chemical Genomics Center [NCGC] NIH Molecular Libraries Probe Centers Network [MLPCN] MLPCN Grant: DA032129 Assay Submitter (PI): Lenny Dang, Agios Pharmaceuticals
# IDH1-R132H (0.5 ug/mL) was dispensed into black, solid-bottom 1536-well plates at 3 uL/well in 20 mM Tris-HCl (pH 7.5), 150 mM NaCl, 10 mM MgCl2, 4 mM beta-ME, and 0.05% protease-free BSA. Then, 23 nL of compounds or DMSO were delivered to each well using a pin tool. A pre-read was run on the Viewlux to identify fluorescent compounds (540 nm excitation filter, 598 nm emission filter, bodipy mirror and 2 second exposure). After 30 minutes of incubation with compound, 3 uL of substrate mix were dispensed (0.016 mM NADPH, 2 mM alpha-KG, 20 mM Tris-HCl (pH 7.5), 150 mM NaCl, 10 mM MgCl2, and 0.05% protease-free BSA). Plates were spun for 1 min at 1000xg and incubated at room temperature for 80 min. Then 1.5 uL of each detection reagent component for the coupling system were added (0.12 mg/mL diaphorase and 0.072 mM resazurin, each in 20 mM Tris-HCl (pH 7.5), 150 mM NaCl, 10 mM MgCl2, and 0.05% protease-free BSA ) The protein, substrate and two detection components were maintained at 4 °C throughout the screen. Additionally, the substrate and resazurin reagents were protected from light. The plates were measured on an Envision plate reader for fluorescence signal using a 540 nm excitation filter and 590 nm emission filter with 10 flashes. 1x and 0x (no-enzyme) IDH1-R132H enzyme control were used to normalize %Activity of identified inhibitors; 0x enzyme values corresponded to 100% Activity (full inhibition), while 1x IDH1-R132H enzyme values were used to normalize 0%Activity (no inhibition). Concentration-response curves were fitted to the signals arising from the resulting fluorescence. The concentration-effect curves were then classified based on curve quality (r2), response magnitude and degree of measured activity, and compounds were subsequently categorized based on their curve class. […] Keywords: isocitrate dehydrogenase, IDH1, IDH1-R132H, MLSMR, MLPCN, NIH Roadmap, qHTS, NCGC
row,SMILES,"activity change, negative = inhibition"
1,CCOC(=O)c1ccc(NC(=O)C(C)(CCl)SC)cc1 (configuration not stated),inactive: 0.0232%
2,CSc1ccc(Nc2c([N+](=O)[O-])cc([N+](=O)[O-])cc2[N+](=O)[O-])cc1,inactive: -2.83%
3,O=C(OC1CN2CCC1CC2)c1cccc([N+](=O)[O-])c1 (configuration not stated),inactive: 12.7%
4,CCC(C)N(CC(C)C)C(=S)SC(NC(C)=O)C(Cl)(Cl)Cl (configuration not stated),inactive: 2.69%
5,COP1(=S)c2c(C)nn(CCC#N)c2N=C(c2ccc(F)cc2)N1C (configuration not stated),inactive: 3.52%
6,O=C(Nc1ccncc1[N+](=O)[O-])c1ccc([N+](=O)[O-])cc1[N+](=O)[O-],inactive: -3.18%
7,O=C(COc1ccccc1)OC1CN2CCC1CC2 (configuration not stated),inactive: -4.53%
8,O=C(O)C(=O)c1ccc(N(CCCl)CCCl)cc1,inactive: 0.509%
9,CCOC(=O)Nc1cccc([As](=O)(O)O)c1,inactive: -2.48%
10,O=[N+]([O-])c1ccc(Nc2ccc(Oc3ccc([N+](=O)[O-])cc3[N+](=O)[O-])cc2)c([N+](=O)[O-])c1,inactive: -6.85%
11,O=P(Nc1ccccn1)(c1cccc2ccccc12)c1cccc2ccccc12,inactive: -2.81%
12,Cc1cc(SC(NC=O)C(Cl)(Cl)Cl)ncn1 (configuration not stated),inactive: 12.4%
13,CC1CCNP(=O)(N(CCCl)CCCl)O1 (configuration not stated),inactive: 7.51%
14,CCOC(=O)Nc1ccc([As](=O)(O)O)c(O)c1,inactive: -5.11%
15,O=C(O)C(O)c1ccc(N(CCCl)CCCl)cc1 (configuration not stated),inactive: 3.77%
16,Cc1cc(SC(NC(=O)c2ccccc2)C(Cl)(Cl)Cl)nc(C(C)C)n1 (configuration not stated),inactive: 4.86%
17,CCCCOc1ccc(C(=O)NCC2(N3CCCCC3)CCCCC2)cc1OC,inactive: -6.12%
18,COP(=O)(OC)N1CC1c1ccccc1 (configuration not stated),inactive: -4.2%
19,CC(C)c1ccc(OP(=O)(Nc2ccccn2)Oc2ccccc2F)cc1 (configuration not stated),inactive: 6.37%
20,COC(=O)C1(C)COP(=O)(N2CCCCCC2)OC1 (configuration not stated),inactive: 0.862%
21,ClCCSc1nnc(-c2cccnc2)o1,inactive: 0.733%

row,SMILES,"activity change, negative = inhibition"
1,O=[N+]([O-])c1cc([N+](=O)[O-])c(-c2ccn[nH]2)s1,inactive: 4.6%
2,CCN(CC)C(=S)SC(NC=O)C(Cl)(Cl)Cl (configuration not stated),inactive: 2.73%
3,O=C(OC1CN2CCC1CC2)c1cccc2[nH]cnc12 (configuration not stated),inactive: 2.47%
4,CC(C)NC(=O)NP(=O)(Oc1ccccc1)Oc1ccccc1,inactive: -4.58%
5,COc1cc(C(=O)NCC2(N3CCOCC3)CCCCC2)ccc1OCC(C)C,inactive: 0.972%
6,O=[N+]([O-])c1ccc(-c2cc([N+](=O)[O-])c(O)c([N+](=O)[O-])c2)cc1,inactive: 9.26%
7,O=[As](O)(c1ccc(O)cc1)c1ccccc1O,inactive: 10.4%
8,C[As](=O)(O)c1cccc(C(=O)O)c1,inactive: 12.9%
9,Cc1ccc2nc3c(c(C)c2c1)CC(C(Cl)Cl)S3 (configuration not stated),inactive: 13.3%
10,Cc1ccc(OP(=O)(Nc2ccc([N+](=O)[O-])cn2)Oc2ccc(C)cc2)cc1,inactive: -4.34%
11,COc1ccc(N/C(=N/P(=O)(N2CCOCC2)N2CCOCC2)N2CCOCC2)cc1,inactive: 8.24%
12,O=[N+]([O-])c1cc(Oc2ccc([N+](=O)[O-])cc2C(F)(F)F)cc([N+](=O)[O-])c1,inactive: 0.813%
13,Cc1cc(=O)[nH]c(N[N+](=O)[O-])n1,inactive: -1.46%
14,O=C(OC1CN2CCC1CC2)C12CC3CC(CC(C3)C1)C2 (configuration not stated),inactive: 11.7%
15,Cc1c2c(nc3ccccc13)SC(C(Cl)Cl)C2 (configuration not stated),inactive: -0.337%
16,COc1cc(I)ccc1[As](=O)(O)O,inactive: -3.99%
17,COc1ccc2nc(NP(=O)(c3ccccc3)c3ccccc3)sc2c1,inactive: -6.54%
18,O=P1(N(CCCl)CCCl)OCCCN1CCCl (configuration not stated),inactive: 9.67%
19,O=P1(N(CCCl)CCCl)Nc2ccccc2N1,inactive: -1.08%
20,CCCOP(=S)(Nc1nc(N)cc(=O)[nH]1)OCCC,inactive: -3.14%
21,Cc1ccc(NCCc2c([N+](=O)[O-])cc([N+](=O)[O-])cc2[N+](=O)[O-])cc1,inactive: 6.35%

row,SMILES,"activity change, negative = inhibition"
1,Nc1cccc2c([As](=O)(O)O)cccc12,inactive: -5.45%
2,CCOP(=O)(Nc1cccc2ccccc12)OCC,inactive: 0%
3,COc1cc(C2NCCC3(OCCO3)C2(C)C)cc(OC)c1OC (configuration not stated),inactive: 2.16%
4,CS(=O)(=O)c1ccc(Cl)c(NC(=O)COC(=O)C(O)(c2ccccc2)c2ccccc2)c1,inactive: -12.1%
5,COc1cc(C(=O)NCC2(N3CCOCC3)CCCCC2)cc(Cl)c1OC(C)C,inactive: 20%
6,O=[As](O)(O)c1cccnc1,inactive: -4.37%
7,O=C(OC1CN2CCC1CC2)c1ccc(Cl)cc1 (configuration not stated),inactive: -11.6%
8,O=[As](O)(c1cccc(O)c1)c1cccc(O)c1,inactive: -9.91%
9,Cc1cccc(OCC(=O)OC2CN3CCC2CC3)c1 (configuration not stated),inactive: -1.24%
10,NC(=O)Nc1ccc([As](=O)(O)O)cc1,inactive: -13.7%
11,CN(C(=O)Cc1ccc(Cl)c(Cl)c1)[C@H]1CC[C@@]2(CCCO2)C[C@@H]1N1CCCC1,inactive: -1.31%
12,CN(C)C(=O)c1cc([N+](=O)[O-])cc2c1-c1c(cc([N+](=O)[O-])cc1[N+](=O)[O-])C2=O,inactive: 20.7%
13,O=[N+]([O-])c1ccc2c(c1)nnn2O,inactive: 4.55%
14,CN(C(=O)Cc1ccccc1)[C@@H]1CC[C@]2(CCCO2)C[C@H]1N1CCCC1,inactive: 1.2%
15,CCOP1(=S)c2c(C)nn(CCC#N)c2N=C(c2ccc(F)cc2)N1C (configuration not stated),inactive: 1.93%
16,N#CCCN(C(=O)COC(=O)C(O)(c1ccccc1)c1ccccc1)c1ccc(F)cc1,inactive: 5.5%
17,CS(=O)(=O)c1cc([N+](=O)[O-])c2no[n+]([O-])c2c1,inactive: 6.07%
18,O=P(Nc1nccs1)(c1ccccc1)c1nc2ccccc2s1 (configuration not stated),inactive: 2.69%
19,O=P(Nc1nccs1)(Oc1ccccc1)Oc1ccccc1,inactive: -2.13%
20,CCOP1(=S)c2c(C)nn(CCC#N)c2N=C(c2ccccc2F)N1C (configuration not stated),inactive: 7.34%

# Reference: PubChem BioAssay AID602179 (National Center for Advancing Translational Sciences (NCATS), 2012)
